Measured values from patent US20130274212A1, “Sesterterpene Compounds and Use Thereof” (SNU R&DB FOUNDATION, priority 2010, published 2013).

Experiments:
[1] = test system: C57BL/6J mouse and ob/ob fatty liver models; test: Fatty liver models in mice (LXR agonist T0901317, high fat, MCD diet); conditions: oral 10 mg/kg
Source text: In order to verify efficacy to prevent and treat fatty liver of the compounds according to the present invention, a fatty liver occurrence model by a medicine, a fatty liver occurrence model by high fat, and a fatty liver occurrence model by methione-deficient diet (MCD) were used. The mice fed with general diet (chow diet) was simultaneously administered with a nuclear receptor LXR agonist (T0901317) to induce fatty liver, and then the efficacy to prevent and treat fatty liver by the compound of Chemical Formula I was tested. After the disease animal model was orally administered with CMDD-X (or Compound 7), the fatty liver-related index between the administered group and the control group was measured to verify the efficacy to prevent and treat fatty liver. The mouse fed with only 0.75% carboxylmethyl cellulose, as a medicine delivery, was used as a negative control group. First, the C57BL/6J mouse fed with general feedstuff was orally administered with the LXR agonist [T0901317 (10 mg/kg)] once per day for 5 days, to thereby induce fatty liver. In addition, the compound of Chemical Formula I (CMDD-X and Compound 7, 10 mg/kg) and the LXR agonist were simultaneously administered, to verify efficacy to prevent and treat fatty liver. The C57BL/6J mouse was fed with 35% high-fat feedstuff for 8 weeks, to induce fatty liver, and then CMDD-X (or Compound 7), together with high-fat diet, was orally administered at a dose of 10 mg/kg/day for 6 weeks. The ob/ob animal model was fed with MCD diet for 4 weeks to induce fatty liver and, at the same time, was orally administered with the compound of Chemical Formula I (CMDD-X or Compound 7, 10 mg/kg), to verify the efficacy to prevent and treat the occurrence of fatty liver. As an analysis result, fat absorption into the liver was inhibited in all of the fatty liver occurrence model by medicine, the fatty liver occurrence model by high fat, and the fatty liver occurrence model by MCD.

[2] = test system: Raw264.7 macrophage activated by LPS; test: Raw264.7 macrophage activated by LPS (qRT-PCR, ELISA, NO assay, western blotting)
Protocol: In order to test the antiatherogenic efficacy of the compound of Chemical Formula I (e.g., CMDD-X or Compound 7) according to the present invention, Raw264.7 macrophage activated by LPS and HUVEC endotheliocyte activated by TNF-α were used. Raw264.7 macrophage was cultured in DMEM medium within a cell incubator containing 5% carbon dioxide at 37° C. The medium contained 10% fetal bovine serum (FBS), 100 U/ml penicillin, and 100 μg/ml streptomycin. One day before compound treatment, raw264.7 cells were seeded on a 6-well plate at 50,000 cells/well. The next day, the cells were pre-treated with compound CMDD-X, for 1 hour, by the concentrations, and then were treated with 100 ng/ml LPS for 24 hours, and the qRT-PCR was conducted. TNF-α and IL-6 are cytokines involved in the occurrence of atherosclerosis, and generated mainly in the macrophage to induce an inflammatory reaction and induce leukocytes, to thereby advance atherosclerosis. […] In addition, the enzyme-linked immunosorbent assay (ELISA) test was conducted from the compound CMDD-X-treated medium.
The nitric oxide (NO) concentration in the medium of the raw264.7 macrophage treated in the experiment was measured. NO is generated in the macrophage or foam cell present in a lesion site where atherosclerosis is advanced. This causes oxidative stress in the blood to generate oxLDL, and is involved in the rupture of the atherosclerosis progression site. In addition, it may be seen from iNOS previously reported and the apoE-deficient mouse results that NO generated by iNOS functions as an important factor in the occurrence and progression of atherosclerosis (Detmers P A et. al., J. Immunol. 2000, 3430-3435). […] In order to confirm whether or not iNOS expression is expressed by the compound CMDD-X, western blotting was conducted with respect to Raw264.7 macrophage activated with 100 ng/ml LPS for 8 hours after a 1 hour-pretreatment. As the result, the expression of iNOS increased by LPS was reduced by the compound CMDD-X (FIG. 24).

[3] = test system: HUVEC endotheliocyte activated by TNF-α; test: HUVEC endotheliocyte activated by TNF-α (qRT-PCR, Western)
Protocol: MCP-1, which is cytokine importantly involved in the atherosclerosis, is generated in the endotheliocyte to promote induction of monocytes into the inflammatory site and thus contributes to formation of atherosclerosis early lesions (Gerszten R E et al, NATURE, 1999, 718-723). HUVEC endotheliocytes were cultured in EGM-2 medium within a cell incubator containing 5% carbon dioxide at 37° C. One day before treatment with the compound CMDD-X, HUVEC endotheliocytes were seeded on a 6-well plate at 30,000 cells/well. The next day, the cells were pre-treated with compound CMDD-X, for 1 hour, by the concentrations, and then were treated with 10 ng/ml TNF-α for 6 hours, and the qRT-PCR was conducted.
VCAM-1, which is another important factor of atherosclerosis, mediates attachment of monocytes in the early first stage of atherosclerosis and is expressed at the edge of the lesion to be involved in the expansion of the lesion (Nakashima Y et al., Arterioscler Thromb Vasc Biol, 1998, 842-851). In order to verify efficacy of the compound CMDD-X on expression of the intercellular adhesion molecule gene (VCAM-1) in the HUVEC endotheliocytes and expression of protein, the samples were obtained by the same experiment and then qRT-PCR and Western experiments were conducted.

[4] = 1 hour pre-treatment, 100 ng/ml LPS 24 hours, qRT-PCR, as concentration increased

CC(C)=CCC/C(C)=C/[C@@H]1CC(C)=C[C@]2(C=C(CO)[C@H]3CC(=O)C(C)=C[C@H]3O2)O1
fat absorption into the liver ([1]; fatty liver models by medicine (T0901317), high fat and MCD): inhibited | ALT (liver-function biomarker) ([1]; fatty liver models): reduction | MCP-1 and TNFα (inflammatory cytokines) ([1]; fatty liver models): reduction | blood LDL ([1]; fatty liver models): decreased | liver function ([1]; fatty liver models): significantly improved | expression of IL-6 gene [2, 4]: significantly decreased | expression of TNF-α gene [2, 4]: significantly decreased | expression of iNOS increased by LPS ([2]; 1 hour pretreatment, 100 ng/ml LPS 8 hours, western blotting): reduced | IL-6 secretion ([2]; ELISA from the treated medium): significantly reduced | nitric oxide (NO) concentration in the medium ([2]; NO assay, as concentration increased): significantly decreased | expression of MCP-1 ([3]; 1 hour pre-treatment, 10 ng/ml TNF-α 6 hours, qRT-PCR, as concentration increased): significantly decreased | expression of VCAM-1 protein ([3]; TNF-α activated HUVEC, Western): significantly decreased | expression of VCAM-1 gene ([3]; TNF-α activated HUVEC, qRT-PCR): significantly decreased
